{"source": "patent US11739099B2", "about": "(CURIA IP HOLDINGS, LLC, priority 2014, dated 2023)", "details": "room temperature, double polyethylene bags, time=0 and after 3 and 6 months", "note": "Where two headings read alike, the source gives them in different places."}
{"substance": "Rifaximin [Rifaximin α/β polymorphic mixture 88/12]", "values": [{"measurement": "Stability of the polymorphic mixture (α/β ratio by DRX powder)", "result": "confirmed"}, {"measurement": "Stability of the polymorphic mixture (α/β ratio by DRX powder)", "setting": "listed as α/β polymorphic mixture", "result": "stable"}]}
